Results on 1 molecule are retold here after paper PMC10272112 (Nature Communications, 2023).

In this assay the target is T1, HDAC8 (Homo sapiens, UniProt Q9BY41).
T1 sequence (Q9BY41 1-377): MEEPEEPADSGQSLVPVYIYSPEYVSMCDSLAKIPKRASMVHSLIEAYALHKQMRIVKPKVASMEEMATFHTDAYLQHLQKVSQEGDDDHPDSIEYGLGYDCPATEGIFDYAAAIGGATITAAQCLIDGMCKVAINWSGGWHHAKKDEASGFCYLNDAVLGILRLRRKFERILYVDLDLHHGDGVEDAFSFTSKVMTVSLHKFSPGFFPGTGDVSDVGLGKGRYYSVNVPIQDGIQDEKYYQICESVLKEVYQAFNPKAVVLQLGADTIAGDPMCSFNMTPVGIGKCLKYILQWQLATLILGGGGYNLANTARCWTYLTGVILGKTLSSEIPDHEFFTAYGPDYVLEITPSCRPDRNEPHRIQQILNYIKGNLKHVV
The assay can be described thus: HDAC-Glo assay. Format: biochemical. Further details: purchased BPS Bioscience 50008. How it is done:
To validate the inhibition of HDACs by LA and LM and elaborate on the structure-activity relationship (SAR) of enantiomers as well as oxidized versus reduced forms of the molecules, we performed enzyme activity assays for recombinant HDAC1,2,3,6,8 as well as FRET-based binding assay for recombinant HDAC10. […] . To measure the potential dependence of HDAC inhibition on the redox state of the molecules, experiments were performed in the presence or absence of TCEP, a reducing agent with no effect on HDAC activity and HDAC inhibitor binding under the assay conditions (Supplementary Fig. 2a). […] . […] As observed in the chemoproteomic experiments, potent HDAC10 binding of (R/S)-LM could be confirmed. […] . […] This makes (S)-LA an ideal negative control for the assessment of which of the phenotypic effects elicited by lipoic acid are related to HDAC inhibition and which are related to other physicochemical properties of the molecule such as metal ion chelation or ROS scavenging.
The experiments were performed according to ref. [48]. HDAC6 and class I HDAC inhibition was tested using the HDAC-Glo™ I/II Assay and Screening System (G6421, Promega) with recombinant human HDACs (BPS Bioscience; HDAC1 cat. #50051; HDAC2 cat. #50002; HDAC3/NcoR2 complex cat. #50003; HDAC6 cat. #50006; HDAC8 cat. #50008). […] Luminescence was detected with a CLARIOstar (BMG Labtech) plate reader.

Regarding `O=C(CCCCCCC(=O)Nc1ccccc1)NO` [Vorinostat], the midpoint of the response, the EC50, lay at 923 nM.

Usually EC50 stands for the concentration needed to bring the measured effect to its halfway point. High values mean weaker potency, low ones greater potency.
